# Only a part is listed here, and it is no random draw. Activity calls are given as the source filed them.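 The calls were made as follows: active = percent inhibition above the average of all tested compounds plus 3 SD, set per screening campaign (cut at about 16% in these data); inactive = the rest.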
# Chains of the proteins cited; added tags and fusions are not shown.
# UniProt P14735, whole entry, looked up: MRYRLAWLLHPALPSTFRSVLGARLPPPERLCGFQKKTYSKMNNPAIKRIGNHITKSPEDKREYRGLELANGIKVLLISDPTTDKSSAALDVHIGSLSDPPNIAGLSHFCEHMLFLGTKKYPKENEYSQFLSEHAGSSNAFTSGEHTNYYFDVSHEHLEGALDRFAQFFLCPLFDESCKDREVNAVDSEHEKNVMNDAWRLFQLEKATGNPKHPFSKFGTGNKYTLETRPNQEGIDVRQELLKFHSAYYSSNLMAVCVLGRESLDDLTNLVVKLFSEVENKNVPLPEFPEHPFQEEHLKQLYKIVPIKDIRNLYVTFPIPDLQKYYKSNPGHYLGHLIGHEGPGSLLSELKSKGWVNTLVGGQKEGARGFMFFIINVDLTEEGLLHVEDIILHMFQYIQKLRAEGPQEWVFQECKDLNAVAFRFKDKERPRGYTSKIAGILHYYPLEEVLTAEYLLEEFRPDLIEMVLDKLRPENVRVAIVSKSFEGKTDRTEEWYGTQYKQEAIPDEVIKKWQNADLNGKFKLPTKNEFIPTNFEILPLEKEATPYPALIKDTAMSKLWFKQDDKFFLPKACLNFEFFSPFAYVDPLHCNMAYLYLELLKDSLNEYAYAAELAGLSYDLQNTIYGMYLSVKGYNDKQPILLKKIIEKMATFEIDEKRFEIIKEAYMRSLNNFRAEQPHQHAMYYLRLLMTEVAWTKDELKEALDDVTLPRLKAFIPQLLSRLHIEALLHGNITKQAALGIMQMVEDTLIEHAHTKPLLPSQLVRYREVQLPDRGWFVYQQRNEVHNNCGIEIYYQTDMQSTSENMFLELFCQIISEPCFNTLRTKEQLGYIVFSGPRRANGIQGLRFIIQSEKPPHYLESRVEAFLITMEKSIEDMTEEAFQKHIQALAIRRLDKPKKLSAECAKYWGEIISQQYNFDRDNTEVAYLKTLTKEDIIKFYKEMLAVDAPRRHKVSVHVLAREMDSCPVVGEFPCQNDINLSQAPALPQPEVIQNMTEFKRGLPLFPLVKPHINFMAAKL
# Target: Insulin-degrading enzyme (Homo sapiens) (UniProt P14735)
# Experiment: cellular IDE Abeta-cleavage inhibition – fluorescence polarization, HEK cells, FAbetaB substrate, primary screen (AID 434962);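 also: IDE supplied by intact live HEK cells; FP after avidin binding of uncleaved biotin substrate so inhibition keeps polarization high; 0% = DMSO wells and 100% = 60 µM reference IDE inhibitor Ii1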
# Settings: at 5.59 µM, hits give high values
row,Structure (SMILES),inhibition
1,CC(C)(C)C(=O)NC(Sc1ccncn1)C(Cl)(Cl)Cl (configuration not stated),inactive: 3.3%
2,O=[N+]([O-])c1ncn(CCn2ncnc2[N+](=O)[O-])n1,inactive: 0.49%
3,O=[N+]([O-])c1cccc(NC2=NCC(CBr)S2)c1 (configuration not stated),inactive: -1.49%
4,O=C(Nc1cc([As](=O)(O)O)ccc1O)c1ccccc1,inactive: -5.5%
5,C[N+]1=C2C=CC=CC=C2SC12C([N+](=O)[O-])=CC([N+](=O)[O-])=C[C-]2[N+](=O)[O-] (configuration not stated),inactive: 3.41%
6,Nc1ccc([As](=O)(O)c2ccc(N)cc2)cc1,inactive: 5.4%
7,CCN(/C(=N/P(=O)(N1CCOCC1)N1CCOCC1)N1CCOCC1)c1ccc(OC)cc1,inactive: -0.51%
8,CN(C)C(=O)OCCc1n(C)cc[n+]1C,inactive: 2.98%
9,CC(C)=N/N=C(\N)N[N+](=O)[O-],inactive: 3.33%
10,CC1CCN(C(=O)Oc2c(Cl)cc(Cl)c3cccnc23)CC1,inactive: 6.17%
11,COc1ccc(C2=NCC(CBr)S2)cc1 (configuration not stated),inactive: 3.43%
12,O=[N+]([O-])c1cccc2n[nH]nc12,inactive: 7.28%
13,CC(=O)N1C2C3N(C(C)=O)C1C1N(C(C)=O)C(C(N1C(C)=O)N3C(C)=O)N2C(C)=O,inactive: 4.83%
14,CCc1nc2c(n1)c1c(non1O)c1c2no[n+]1[O-],inactive: 2.5%
15,O=[N+]([O-])c1cc([N+](=O)[O-])c(CCNc2ccccc2)c([N+](=O)[O-])c1,inactive: 2.15%
16,Cc1ccc(NP(=O)(Oc2ccccc2)Oc2ccccc2)nc1,inactive: 1.85%
17,CC(C)CC(=O)NC(Sc1ccc(Cl)cc1)C(Cl)(Cl)Cl (configuration not stated),inactive: -4.75%
18,Nc1cc(N)c2nonc2c1[N+](=O)[O-],inactive: -8.67%
19,Cc1c2non([O-])c-2c(C)[n+](=O)[n+]1[O-],inactive: 8.69%
20,O=C(NC(Sc1ccncn1)C(Cl)(Cl)Cl)c1ccccc1 (configuration not stated),inactive: 3.93%
21,Oc1ccccc1CNc1ccccn1,inactive: -4.12%
22,NC(=O)c1cc([N+](=O)[O-])cc([N+](=O)[O-])c1N,inactive: 0.28%
23,Cc1ccc(N/C(=N/P(=O)(N2CCOCC2)N2CCOCC2)N2CCOCC2)cc1,inactive: 6.38%
24,CN(C(=O)Cc1ccc(Cl)c(Cl)c1)[C@H]1CCCC[C@H]1N1CCCC1,inactive: 4.93%
25,Cc1ccc(OP(=O)(Nc2nccs2)Oc2ccc(C)cc2)cc1,inactive: 3.08%
26,COc1ccccc1OP(=O)(Nc1ccc(C)cn1)Oc1ccccc1OC,inactive: -2.35%

row,Structure (SMILES),inhibition
1,Clc1ccc(Cl)c(NC2=NCC(CBr)S2)c1 (configuration not stated),inactive: -2.82%
2,CN1CCCC(OC(=O)C(c2ccccc2)c2ccccc2)C1 (configuration not stated),inactive: -0.58%
3,O=[N+]([O-])c1cc([N+](=O)[O-])c(CCN2CCOCC2)c([N+](=O)[O-])c1,inactive: -8.79%
4,CCN(N=Nc1nonc1N)c1nonc1N,inactive: 5.19%
5,O=C(O)c1ccccc1[As](=O)(O)O,inactive: 7.09%
6,CC(=O)Nc1ccc([As](=O)(O)O)cc1,inactive: 6.11%
7,O=P(Nc1nc2ccc(Cl)cc2s1)(c1ccccc1)c1ccccc1,inactive: -2.4%
8,Cc1ccc(NP(=O)(Oc2ccccc2F)Oc2ccccc2F)nc1,inactive: 1.55%
9,CN(C(=O)Cc1ccc(Cl)c(Cl)c1)[C@H]1CCCC[C@@H]1N1CCCC1,inactive: 4.36%
10,CCOP(=O)(Nc1ccccc1)OCC,inactive: 1.68%
11,Cc1cc(SC(NC(=O)c2ccc(F)cc2)C(Cl)(Cl)Cl)ncn1 (configuration not stated),inactive: 0.65%
12,Cc1ccc(OP(=O)(Nc2ccccn2)Oc2ccc(C)cc2)cc1,inactive: -2.21%
13,CC(=O)NC(SC(=S)N(CC(C)C)CC(C)C)C(Cl)(Cl)Cl (configuration not stated),inactive: -6.46%
14,COC(=O)c1cc2c(s1)N=C(c1ccccc1)N(C)P2(=O)N1CCOCC1 (configuration not stated),inactive: 10.6%
15,CCC(=O)N1C2C3N(C(=O)CC)C1C1N(C(=O)CC)C(C(N1C(=O)CC)N3C(=O)CC)N2C(=O)CC,inactive: -6.92%
16,O=C(OC1CN2CCC1CC2)c1ccccc1 (configuration not stated),inactive: -0.54%
17,CN(C)C(=O)Oc1noc2ccccc12,inactive: 1.01%
18,Cc1ccccc1OP(=O)(Nc1ccccn1)Oc1ccccc1C,inactive: 3.61%
19,CC(NC(=O)COC(=O)C(O)(c1ccccc1)c1ccccc1)c1ccccc1 (configuration not stated),inactive: 1.91%
20,CCNC(=S)/N=C(\N)N[N+](=O)[O-],inactive: 2.21%
21,O=C(NC1CCS(=O)(=O)C1)NP(=S)(Oc1ccccc1)Oc1ccccc1 (configuration not stated),inactive: 1.29%
22,CCOC(=O)NC(Sc1ccccc1)C(Cl)(Cl)Cl (configuration not stated),inactive: 9.67%
23,Cc1ccc(NP(=O)(Oc2cccc(C)c2)Oc2cccc(C)c2)nc1,inactive: -2.35%
24,c1ccc(-c2nn[nH]n2)c(-c2nn[nH]n2)c1,inactive: -2.26%
25,CC(=O)c1ccc(N2CC2c2ccncc2)cc1 (configuration not stated),inactive: 3.49%
26,C[C@@H]1C=CCP(=O)(Oc2ccccc2)O1 (some centres not stated),inactive: 1.03%

row,Structure (SMILES),inhibition
1,C[C@H]1OP(=O)(Oc2ccccc2)C[C@@H]2O[C@@H]21 (some centres not stated),inactive: 5.92%
2,Cc1ccccc1CN(C)C(=O)COC(=O)C(O)(c1ccccc1)c1ccccc1,inactive: -4.25%
3,CC(=O)Nc1ccc(Oc2c([N+](=O)[O-])cc([N+](=O)[O-])cc2[N+](=O)[O-])cc1,inactive: 2.95%
4,CC(=O)Nc1ccc([As](=O)(O)O)c(O)c1,inactive: 4.14%
5,CCOc1ccc(C2=NCC(CBr)S2)cc1 (configuration not stated),inactive: 0.98%
6,O=P1(Nc2nc3ccc(Cl)cc3s2)COc2ccccc2O1 (configuration not stated),inactive: -1.96%
7,CC(C)(C)C(=O)NC(Sc1ccccc1)C(Cl)(Cl)Cl (configuration not stated),inactive: 12%
8,CC(C)C(=O)NC(Sc1ccccc1)C(Cl)(Cl)Cl (configuration not stated),inactive: 4.07%
9,O=P(Nc1nccs1)(c1ccccc1)c1ccccc1,inactive: 3.23%
10,c1nnnn1CCn1cnnn1,inactive: 0.16%
11,O=[N+]([O-])c1ccc(O)c(/C=N/Nc2ccc([N+](=O)[O-])cc2[N+](=O)[O-])c1,inactive: 2.71%
12,O=[N+]([O-])c1ncn(CCn2cnc([N+](=O)[O-])n2)n1,inactive: -1.83%
13,CC(=O)NC(SC(=S)N(C)C)C(Cl)(Cl)Cl (configuration not stated),inactive: -1.17%
14,O=[As](O)(c1ccccc1)c1ccc(O)cc1,inactive: -3.4%
15,Nc1ccc([As](=O)(O)c2ccc([N+](=O)[O-])cc2)cc1,inactive: -2.54%
16,C(Cc1nn[nH]n1)Cc1nn[nH]n1,inactive: -0.91%
17,O=C(OC1CN2CCC1CC2)c1cccc(Cl)c1 (configuration not stated),inactive: 1.21%
18,O=P(Nc1ccccn1)(c1ccc(Br)cc1)c1ccc(Br)cc1,inactive: -0.16%
19,CN(C)C1(CNC(=O)c2ccc(Cl)c(S(N)(=O)=O)c2)CCCCC1,inactive: 4.83%
20,C[C@H]1OP(=O)(Oc2ccccc2)[C@H](O)[C@H](O)[C@H]1N=[N+]=[N-] (some centres not stated),inactive: -0.46%
21,O=P(Nc1nc2ccccc2s1)(c1ccccc1)c1ccccc1,inactive: 0.19%
22,O=P1(Nc2ncccn2)COc2ccccc2OC1,inactive: 0.05%
23,O=P1(Nc2ccc(Br)cn2)COc2ccccc2OC1,inactive: 7.61%
24,NS(=O)(=O)c1cccc(NC(=O)COC(=O)C(O)(c2ccccc2)c2ccccc2)c1,inactive: -0.83%
25,O=[As](O)(c1cccs1)c1cccs1,inactive: -1.73%
26,Cc1ccc(OCC(=O)OC2CN3CCC2CC3)cc1 (configuration not stated),inactive: 6.66%

row,Structure (SMILES),inhibition
1,Nc1cccc([As](=O)(O)c2ccccc2)c1,inactive: 2.02%
2,CC1CCC(C(C)C)C(OP(=O)(Nc2ccccn2)c2ccccc2)C1 (configuration not stated),inactive: 1.71%
3,Cc1ccc(C(=O)OC2CN3CCC2CC3)cc1 (configuration not stated),inactive: 1.09%
4,Cc1nn(-c2ccccc2)c2c1P(=O)(N1CCOCC1)N(C)C(c1ccccc1)=N2 (configuration not stated),inactive: 5.49%
5,O=C(/C=C/c1ccccc1)OC1CN2CCC1CC2 (configuration not stated),inactive: 6.03%
6,CN(C)C1(CNC(=O)c2ccc(S(C)(=O)=O)cc2)CCCCC1,inactive: -0.45%
7,COc1ccccc1CNC(=O)COC(=O)C(O)(c1ccccc1)c1ccccc1,inactive: -1.11%
8,CC1(CBr)Cn2c(nc3ccccc3c2=O)S1 (configuration not stated),inactive: 2.87%
9,O=[As](O)(c1ccccc1Br)c1ccccc1Br,inactive: 3.62%
10,CC(C)/C=N\N=C(\N)N[N+](=O)[O-],inactive: 7.1%
11,CN(C(=O)Cc1ccc(Cl)c(Cl)c1)[C@@H]1CCCC[C@H]1N1CCCC1,inactive: 2.64%
12,CN(CCCl)Cc1cc(Cl)c(NC2=NCCN2)c(Cl)c1,inactive: 1.47%
13,CCOP(=O)(Nc1ccc(C)cn1)OCC,inactive: 4.86%
14,CCOP(=O)(NC(=NC(C)c1ccccc1)NC(C)c1ccccc1)OCC (configuration not stated),inactive: 7.2%
15,O=P1(Nc2ccccn2)COc2ccccc2OC1,inactive: 3.83%
16,CCC1=CC2Cc3nc4ccc(Cl)cc4c(N)c3C(C1)C2 (configuration not stated),inactive: -2.31%
17,CC(C)(C)C(=O)NC(Sc1ncccn1)C(Cl)(Cl)Cl (configuration not stated),inactive: 4.82%
18,Clc1n[nH]nc1-c1nn[nH][15n]1,inactive: 1.68%
19,CCCOP(=S)(Nc1nc(N)cc(=O)[nH]1)OCCC,inactive: 1.46%
20,Nc1cccc2c([As](=O)(O)O)cccc12,inactive: -1.87%
21,Cc1ccc(NCCc2c([N+](=O)[O-])cc([N+](=O)[O-])cc2[N+](=O)[O-])cc1,inactive: 4.33%
22,CCOP(=O)(Nc1cccc2ccccc12)OCC,inactive: 1.69%
23,COc1cc(C2NCCC3(OCCO3)C2(C)C)cc(OC)c1OC (configuration not stated),inactive: 5.03%
24,CS(=O)(=O)c1ccc(Cl)c(NC(=O)COC(=O)C(O)(c2ccccc2)c2ccccc2)c1,inactive: 0.12%

# Source: PubChem BioAssay AID434962 (The Scripps Research Institute Molecular Screening Center, 2010)
